Measured values: PMC9313104, “Interaction Interface of Aβ42 with Human Na,K-ATPase Studied by MD and ITC and Inhibitor Screening by MD” (Biomedicines, 2022)

Target: duck Na,K-ATPase (Anas platyrhynchos, UniProt Q7ZYV1)
Test: Isothermal titration calorimetry (MicroCal iTC200), Aβ42 binding to Na,K-ATPase in different states
Conditions: 25 °C; for Ka, affinity constant: 10 mM imidazole, 0.1 mM DTT, measured three to four times, SD did not exceed ±20%; for Kd: calculated as 1/Ka, read-out: Kd, dissociation constant; for ∆G, Gibbs energy: calculated from ∆G = −RTlnKa
Procedure: Briefly, the peptide was dissolved in hexafluoroisopropanol (Fluka), dried, and stored at −80 °C. Before the experiment, the peptide was dissolved in DMSO for 1 h and then diluted in the buffer solution.
Purified preparation of Na,K-ATPase was obtained from duck salt glands as described elsewhere.
Experiments were carried out at 25 °C in four buffers, as described elsewhere: (E2P buffer) 10 mM imidazole, 3 mMTris/Pi, 1 mM EDTA, 3 mM MgCl2, 0.1 mM DTT, pH 7.5; (E1/E2 buffer) 10 mM imidazole, 130 mM NaCl, 20 mM KCl, 3 mM MgCl2, 0.1 mM DTT, pH 7.5; (E1 buffer) 10 mM imidazole, 1 mM EDTA, 3 mM NaCl, 0.1 mM DTT, pH 7.5; (E2 buffer) 10 mM imidazole, 1 mM EDTA, 3 mM KCl, and 0.1 mM DTT, pH 7,5. […] Aliquots (2.6 μL) of ligands were injected into a 0.24 mL cell containing the protein solution to achieve a complete binding isotherm. […] Equivalent amounts of DMSO was added to protein solutions to avoid thermal effects of dissolution.
The effective heat of binding was obtained by subtracting the heat of dilution from the heat of reaction. MicroCal Origin software was used to fit isothermal titration curves. […] The Gibbs energy and enthalpy changes […] were estimated according to the equations: ∆G = −RT lnKa and ∆G = ∆H − T∆S.

[1] = OBN state (26 µM ouabain), pH 7.5

Q: For “Aβ42: Aβ42 peptide was synthesized by Biopeptide”, which “Ka, affinity constant” value (E1/E2 state, 130 mM NaCl, 20 mM KCl, 3 mM MgCl2, pH 7.5) is on record?
A: The value was 770000 M⁻¹.

Q: What about the Kd (E1/E2 state, pH 7.5) of the same substance?
A: Its Kd is 1300 nM.

Q: And the “∆G, Gibbs energy” value (E1/E2 state, pH 7.5)?
A: The value was -8.02 kcal/mol.

Q: What about the “Ka, affinity constant” value (E1 state, 1 mM EDTA, 3 mM NaCl, pH 7.5) of the same substance?
A: The value was 370000 M⁻¹.

Q: And the Kd (E1 state, pH 7.5)?
A: Its Kd is 2700 nM.

Q: And the “∆G, Gibbs energy” value (E1 state, pH 7.5)?
A: Its value is -7.56 kcal/mol.

Q: And the “Ka, affinity constant” value (E2P state, 1 mM EDTA, 3 mM MgCl2, 3 mM Tris/Pi, pH 7.5)?
A: The value was 510000 M⁻¹.

Q: What about the Kd (E2P state, pH 7.5) of the same substance?
A: Its Kd is 2000 nM.

Q: And the “∆G, Gibbs energy” value (E2P state, pH 7.5)?
A: Its value is -7.78 kcal/mol.

Q: And the Kd (E2 state, pH 7.5)?
A: The Kd was 2000 nM.

Q: What about the “∆G, Gibbs energy” value (E2 state, pH 7.5) of the same substance?
A: The value was -7.76 kcal/mol.

Q: What about the Kd [1] of the same substance?
A: The Kd was 1200 nM.

Q: And the “∆G, Gibbs energy” value [1]?
A: Its value is -8.08 kcal/mol.

Q: What about the “Ka, affinity constant” value (OBN state (complex with ouabain), 26 µM ouabain, 1 mM EDTA, 3 mM MgCl2, 3 mM Tris/Pi, pH 7.5) of the same substance?
A: The value was 830000 M⁻¹.

Where two headings read alike, the source gives them in different places.
